Assay results as given in patent publication US20220177587A1, “METHODS AND USES OF VARIANT CD80 FUSION PROTEINS AND RELATED CONSTRUCTS” (Alpine Immune Sciences, Inc., priority 2018, published 2022).

Chains of the proteins cited; added tags and fusions are not shown. Residues count along the entry.
UniProt P16410, 36-223: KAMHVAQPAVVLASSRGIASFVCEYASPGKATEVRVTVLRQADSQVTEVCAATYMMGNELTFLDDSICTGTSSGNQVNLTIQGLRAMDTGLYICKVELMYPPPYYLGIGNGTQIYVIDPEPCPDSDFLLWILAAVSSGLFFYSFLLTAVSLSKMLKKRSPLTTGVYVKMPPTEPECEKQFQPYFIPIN
UniProt Q9NZQ7, 19-290: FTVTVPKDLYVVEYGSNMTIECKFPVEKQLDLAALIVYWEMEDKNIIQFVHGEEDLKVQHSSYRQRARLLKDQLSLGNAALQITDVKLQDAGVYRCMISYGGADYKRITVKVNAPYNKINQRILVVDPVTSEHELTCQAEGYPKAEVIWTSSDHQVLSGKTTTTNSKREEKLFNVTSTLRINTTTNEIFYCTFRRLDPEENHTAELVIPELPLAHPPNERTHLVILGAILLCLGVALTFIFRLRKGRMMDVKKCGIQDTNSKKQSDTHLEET

How the values were obtained:
huCTLA4 = huCTLA4 (Homo sapiens, UniProt P16410); assay: Flow binding to CHO cells stably expressing CTLA4; parameters: huCTLA4 and huPD-L1, full-length mammalian surface expression constructs were generated; expressed in transfected cells; host or cells: CHO cells, lentiviral transduction, sorted to >98% purity; details: Table E31; flow binding to CHO cells stably expressing CTLA4; read-out: CTLA4 EC50
Method: (§1) Binding of selected immunomodulatory fusion proteins to cognate binding partners was assessed. […] Cells were sorted in a Bio-Rad S3 Cell Sorter (Bio-Rad Corp., USA) to >98% purity. Jurkat/IL2 reporter cells, which endogenously express CD28, were used to detect binding to CD28.
(§2) For staining and analysis by flow cytometry, 100,000 cells of appropriate transfected cells were plated in 96-well round bottom plates. Cells were spun down and resuspended in staining buffer (phosphate buffered saline (PBS), 1% bovine serum albumin (BSA), and 0.1% sodium azide) for 20 minutes to block non-specific binding. […] Primary staining was performed on ice for 45 minutes, before washing cells in staining buffer twice. Phycoerythrin (PE)-conjugated anti-human Fc (Jackson ImmunoResearch, USA) was diluted 1:150, added to cells and incubated another 30 minutes on ice. Cells were then washed twice with 150 μL/well stain buffer, fixed in 2% formaldehyde/PBS, and analyzed on Intellicyt flow cytometer (Intellicyt Corp., USA). PE Mean Fluorescence Intensity (MFI) was calculated for each cell type with FlowJo Version 10 software (FlowJo LLC, USA).
(§3) Binding assays were carried out to assess the specificity and affinity of multivalent proteins to cell-expressed CTLA-4, CD28, and PD-L1 counter structures.
(§4) The EC50 for binding also was determined.

CD28 = CD28 (Homo sapiens, UniProt P10747); assay: Flow binding to Jurkat/IL2 reporter cells (CD28); parameters: host or cells: Jurkat cells expressing an IL-2-luciferase reporter; details: Table E31; flow binding to Jurkats (CD28)
Method: as §1, §2, §3, §4

huPD-L1 = huPD-L1 (Homo sapiens, UniProt Q9NZQ7); assay: Flow binding to CHO cells stably expressing PD-L1; parameters: huCTLA4 and huPD-L1, full-length mammalian surface expression constructs were generated; expressed in transfected cells; host or cells: CHO cells, lentiviral transduction, sorted to >98% purity; details: Table E31
Method: as §1, §2, §3, §4

B1: CD80 IgV-Fc (protein)
chain: VIHVTKEVKEVATLSCGHNVSVEELAQTRIYWQKEKKMVLTMMSGDMNIWPEYKNRTIFDITNNLSIVILALRPSDEGTYECVVLKYEKDAFKREHLAEVTLSVKAD
modifications: left off: a dimerising Fc or GST; small tags and cut ends
B1 showed an EC50 (huCTLA4) of 1.3 nM, an EC50 (CD28) of 6.5 nM and an EC50 (huPD-L1) of 3.6 nM.
